# What was measured:
# [1] = 3 mg/mL, acetate salt, non-filtered
# [2] = system: release of IL-5 upon T cell activation; assay: Fluorospot assay, IL-5 release (DK1-TCL01, US1-TCL01); assay type: cell-based, human; details: head prints TCL-02 DK1; text: 25 TCL-01 DK1 lines
# [3] = system: release of IFN-γ upon T cell activation; assay: Fluorospot assay, IFN-γ release (DK1-TCL01, US1-TCL01); assay type: cell-based, human; details: head prints TCL-02 DK1; 17 TCL-01 DK1 lines
"Visual inspection after 60 min pH 4.5 ([1]; 250 mM D-Mannitol and 25 mM sodium acetate, pH 4.5)","Visual inspection after centrifugation pH 4.5 ([1]; 250 mM D-Mannitol and 25 mM sodium acetate, pH 4.5, after centrifugation)","Visual inspection after 60 min pH 7 ([1]; 250 mM D-Mannitol and 25 mM sodium phosphate, pH 7.0)",Structure (SMILES),IL-5-Fluorospotr % donor coverage (TCL-02 DK1) [2] [%],IFN-gamma % donor coverage (TCL-02 DK1) [3] [%]
Hair,Ok,Gel-like surface ++,CSCC[C@H](NC(=O)CNC(=O)[C@H](CCCCN)NC(=O)[C@H](CCC(=O)O)NC(=O)[C@@H](NC(=O)[C@H](CC(C)C)NC(=O)[C@H](Cc1ccccc1)NC(=O)[C@H](CCCNC(=N)N)NC(=O)[C@H](Cc1ccccc1)NC(=O)[C@H](CC(N)=O)NC(=O)[C@H](Cc1ccccc1)NC(=O)[C@@H]1CCCN1C(=O)CNC(=O)[C@H](CCC(N)=O)NC(=O)[C@H](CC(C)C)NC(=O)[C@@H]1CCCN1C(=O)[C@@H](N)CCC(=O)O)[C@@H](C)O)C(=O)N[C@@H](CCCCN)C(=O)N[C@@H](CC(N)=O)C(=O)N[C@H](C(=O)O)C(C)C [peptide 216],,
,,,CC(C)C[C@H](NC(=O)[C@@H]1CCCN1C(=O)[C@H](CCC(=O)O)NC(=O)[C@H](Cc1c[nH]c2ccccc12)NC(=O)[C@H](CCC(=O)O)NC(=O)[C@@H](N)CCC(=O)O)C(=O)N[C@H](C(=O)N[C@@H](CCCCN)C(=O)N[C@@H](CCCCN)C(=O)NCC(=O)N[C@@H](CC(N)=O)C(=O)N[C@H](C(=O)N[C@@H](Cc1c[nH]c2ccccc12)C(=O)N[C@@H](CCC(=O)O)C(=O)N[C@H](C(=O)O)C(C)C)C(C)C)[C@@H](C)O [compound 120],16.67,4.00
